Measurements as given in patent US20080286301A1, “Treatment of diabetes” (priority 1997, published 2008).

Tested on: normal volunteers
Experiment: Sustacal meal preceded by subcutaneous injection of GLIP in normal volunteers (Example 4)
Assay type: in vivo, human
Method: 7 normal volunteers were studied after ingestion of a Sustacal meal either alone or immediately preceded by a subcutaneous injection of 100 μg GLIP.
Results are shown in FIG. 4. *indicates statistically significant differences between treatments (p<0.05).

Glucagon-like peptide 1(7-36)amide [GLIP]
delays in increase in blood levels, relative to 100 μg dose (50 μg GLIP sc): proportionally shorter | delays in increase in blood levels, relative to 100 μg dose (200 μg GLIP sc): longer
